Some compounds may have been tested in ways that are not shown here.

Chains of the proteins cited; added tags and fusions are not shown. Residues count along the entry.
UniProt P28571, 1-651 isoform 2: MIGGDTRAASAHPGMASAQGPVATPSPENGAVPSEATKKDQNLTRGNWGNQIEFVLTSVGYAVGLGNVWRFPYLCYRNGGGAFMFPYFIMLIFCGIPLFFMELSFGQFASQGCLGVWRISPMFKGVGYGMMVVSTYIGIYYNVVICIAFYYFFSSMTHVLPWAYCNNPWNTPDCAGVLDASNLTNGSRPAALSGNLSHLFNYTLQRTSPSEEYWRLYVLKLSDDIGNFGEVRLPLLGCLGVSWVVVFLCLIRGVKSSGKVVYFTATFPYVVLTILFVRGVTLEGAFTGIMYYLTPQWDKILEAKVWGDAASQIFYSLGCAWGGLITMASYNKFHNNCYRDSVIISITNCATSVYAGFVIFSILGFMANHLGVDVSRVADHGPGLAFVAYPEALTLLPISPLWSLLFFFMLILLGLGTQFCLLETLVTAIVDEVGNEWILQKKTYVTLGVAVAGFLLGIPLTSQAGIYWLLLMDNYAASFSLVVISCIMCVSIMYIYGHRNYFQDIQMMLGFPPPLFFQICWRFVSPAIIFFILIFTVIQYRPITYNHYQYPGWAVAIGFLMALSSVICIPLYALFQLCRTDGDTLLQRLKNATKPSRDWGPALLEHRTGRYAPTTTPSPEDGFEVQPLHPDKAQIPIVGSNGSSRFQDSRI

This assay deals with mGlyT-1b (Mus musculus, UniProt P28571). Description: Glycine Uptake Inhibition Assay (mGlyT-1b). The settings on record: read-out: IC50 data; [3H]-glycine uptake, Flp-in-CHO cells transfected with mGlyT-1b cDNA, 20 min preincubation at 22° C. In kind it is cell-based.
On to `COc1cc(C(F)(F)F)cc(SC)c1C(=O)N[C@@H]1CCCC[C@@H]1NC1CCC1` (racemic), for which the IC50 (as a rule, the point on the concentration scale where inhibition reaches its midpoint) was 81.4 nM.
The result for `CSc1cc(C(F)(F)F)cc(C(F)(F)F)c1C(=O)N[C@H]1CCCC[C@H]1N1CCCC1` reads 37.9 nM; that for `O=C(N[C@@H]1CCCC[C@@H]1N1CCCC1)c1ccc(C(F)(F)F)cc1C1CC1` (single isomer, unassigned) [Example 47], 22.7 nM.
`COc1cc(C(F)(F)F)cc(C(F)(F)F)c1C(=O)N[C@@H]1CCCC[C@@H]1N1CCCC1C` (stereo partly shown): the IC50 was 92.1 nM.
Then `CSc1cc(C(F)(F)F)ccc1C(=O)N[C@@H]1CCCC[C@@H]1N1CCCC1` (racemic), with 99.8 nM; and `COc1cc(C(F)(F)F)cc(SC)c1C(=O)N[C@@H]1CCCC[C@@H]1N1CCCC1` (single isomer, unassigned) [Example 6], with 50.4 nM.
Then `O=C(NC1CCCCC1NC1CCCC1)c1ccc(C(F)(F)F)cc1C1CC1` (single isomer, unassigned) [54], with 79.9 nM; and `O=C(N[C@H]1CCCC[C@H]1N1CCCC1)c1ccc(C(F)(F)F)cc1C1CC1` (racemic), with 50.7 nM.
The result for `COc1cc(C(F)(F)F)cc(C(F)(F)F)c1C(=O)N[C@@H]1CCCC[C@@H]1NC1CCCC1` (racemic) reads 89.4 nM; that for `CSc1cc(C(F)(F)F)cc(C(F)(F)F)c1C(=O)N[C@@H]1CCCC[C@@H]1N1CCCC1` (single isomer, unassigned), 65 nM.
On to `O=C(N[C@H]1CCCC[C@H]1NC1CCCC1)c1ccc(C(F)(F)F)cc1C1CC1` (racemic), for which the IC50 was determined as 57.3 nM.
Turning to `COc1cc(C(F)(F)F)cc(SC)c1C(=O)N[C@@H]1CCCC[C@@H]1NC1CCCC1` (relative stereo), the IC50 is 24.8 nM.
On to `CSc1cc(C(F)(F)F)ccc1C(=O)N[C@@H]1CCCC[C@@H]1N1CCCC1` (single isomer, unassigned), for which the IC50 was 92 nM.
The result for `COc1cc(C(F)(F)F)cc(SC)c1C(=O)N[C@@H]1CCCC[C@@H]1N1CCCC1` (single isomer, unassigned) [Example 7] reads 49.5 nM; that for `CCc1cc(C(F)(F)F)ccc1C(=O)N[C@@H]1CCCC[C@@H]1N1CCCC1` (racemic), 97.9 nM; that for `O=C(NC1CCCCC1NC1CCCC1)c1ccc(C(F)(F)F)cc1C1CC1` (single isomer, unassigned) [Example 53], 36.7 nM.
The result for `O=C(N[C@H]1CCCC[C@H]1N1CCCC1)c1c(C2CC2)cc(C(F)(F)F)cc1C(F)(F)F` (relative stereo) reads 47.9 nM; that for `O=C(N[C@@H]1CCCC[C@@H]1N1CCCC1)c1ccc(C(F)(F)F)cc1C1CC1` (single isomer, unassigned) [48], 86.9 nM.
The result for `COc1cc(C(F)(F)F)cc(SC)c1C(=O)N[C@@H]1CCCC[C@@H]1N1CCCC1` (racemic) reads 56.7 nM.
